Source: ChEMBL document CHEMBL1121978, “Ultra-short-acting beta-adrenergic receptor blocking agents. 2. (Aryloxy)propanolamines containing esters on the aryl function” (J Med Chem, 1982)

Protein sequences, listed by entry. Tags and fused reporters are not part of them.
UniProt B0FL73, whole entry: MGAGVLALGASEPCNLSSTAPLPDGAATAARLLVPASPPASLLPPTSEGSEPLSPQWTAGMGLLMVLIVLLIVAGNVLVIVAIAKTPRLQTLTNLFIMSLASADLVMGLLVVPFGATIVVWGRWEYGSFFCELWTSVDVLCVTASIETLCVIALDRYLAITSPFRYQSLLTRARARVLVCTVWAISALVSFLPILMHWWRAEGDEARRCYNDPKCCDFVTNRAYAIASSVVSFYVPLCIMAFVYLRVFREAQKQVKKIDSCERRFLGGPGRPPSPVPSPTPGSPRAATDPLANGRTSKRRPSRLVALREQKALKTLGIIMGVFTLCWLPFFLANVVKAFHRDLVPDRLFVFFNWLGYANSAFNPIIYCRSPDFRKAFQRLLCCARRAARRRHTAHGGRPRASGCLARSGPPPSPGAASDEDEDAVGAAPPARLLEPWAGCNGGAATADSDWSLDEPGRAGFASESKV

Assays:
[1] = biological target: T1, Beta-1 adrenergic receptor (Cavia porcellus, UniProt B0FL73); test: The compound was tested in vitro for its ability to block Beta-1 adrenergic receptor in guinea pig right atria; settings: read-out: pA2 (converted)
[2] = biological target: T1, Beta-1 adrenergic receptor; test: Ability to block Beta-1 adrenergic receptor in guinea pig right atria preparation at a duration of 40 min; format: functional; settings: read-out: pA2 (converted)

Compound	Kb [1]	Kb [2]
COC(=O)c1ccccc1OCC(O)CNCCc1ccc(OC)c(OC)c1 (configuration not stated)	5.01 nM	–
COC(=O)CCc1ccc(OCC(O)CNC(C)(C)C)cc1 (configuration not stated)	–	100 nM
